The results in this text go back to patent US9950027.

Sequences of proteins named here, by UniProt entry; tags and fusion partners are left off. Residues count along the entry.
UniProt P43220, 24-463: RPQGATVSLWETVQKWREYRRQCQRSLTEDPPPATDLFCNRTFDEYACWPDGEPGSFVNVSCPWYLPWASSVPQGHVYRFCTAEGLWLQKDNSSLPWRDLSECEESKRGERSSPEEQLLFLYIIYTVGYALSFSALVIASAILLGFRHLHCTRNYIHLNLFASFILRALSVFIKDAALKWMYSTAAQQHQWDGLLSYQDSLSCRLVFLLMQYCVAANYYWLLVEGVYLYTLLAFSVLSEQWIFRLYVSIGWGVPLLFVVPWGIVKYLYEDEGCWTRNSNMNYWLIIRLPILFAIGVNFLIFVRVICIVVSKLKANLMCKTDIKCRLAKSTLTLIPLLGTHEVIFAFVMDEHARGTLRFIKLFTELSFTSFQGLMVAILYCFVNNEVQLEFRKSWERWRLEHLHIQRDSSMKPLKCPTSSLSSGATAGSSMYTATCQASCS

This assay concerns the target human GLP-1 receptor (human) (UniProt P43220). Kind of assay: cell-based or functional assay.

The substance “Analogue 1 (Example 4, BAP-modified GLP-1 analogue): Ac-His-Ala-Glu-Gly-Thr-Phe-Thr-Ser-Asp-Val-Ser-Ser-Tyr-Leu-Glu-Gly-Gln-Ala-Ala-Lys-Glu-Phe-Ile-Ala-Trp-Leu-Val-Lys-Gly-Arg-Gly-(Lys-Lys-Ac)Lys-NH2 (peptide)” came in with an EC50 (nM), cAMP production (HTRF) of 0.016 nM.
